Test system: Lgr5+ cochlear cells
Assay: Lgr5+ Assay (in vitro Lgr5+ cell proliferation assay)
Format: cell-based
Details: Table 6

Compound: CN1CCN(C(=O)CN[C@@H]2C[C@H]2c2ccc(OCc3ccccc3)cc2)CC1 (relative stereo)
- Lgr5+ Assay: 41 nM
